# Only a part is listed here, and it is no random draw. Calls of active or inactive are those of the source. Rule as the data show it: active = inhibition above about 30%; inconclusive = no clear call, values can overlap the other calls; inactive = below that.
# Tested on: Botulinum neurotoxin type A light chain protease (Clostridium botulinum A str. ATCC 3502)
# Experiment: blockers of BoNT/A LC substrate cleavage – biochemical, flow cytometry, MLPCN library, primary screen (AID 588499); also: plate controls were buffer without enzyme for full effect and enzyme alone for no effect
# Settings: multiplex microsphere protease substrate cleavage, at 10 µM, hits give high values
row,SMILES,inhibition
1,CCC(=O)N(c1ccccc1)C1(COC)CCN(CCn2nnn(CC)c2=O)CC1,inactive: -0.1%
2,CCC(=O)N(c1ccccc1)C1(COC)CCN(CCc2cccs2)CC1,inactive: -0.5%
